Test results as given in patent US9624254B2, “Hydroxysafflor yellow pharmaceutical salts” (ZHEJIANG YONGNING PHARMACEUTICAL CO LTD, priority 2013, dated 2017).
Where two headings read alike, the source gives them in different places.

Format: physicochemical
Conditions: for Content: calculated as hydroxysafflor yellow A

Compound	Total purity (Accelerated 0 month) [%]	Content (Accelerated 0 month) [%]	Total purity (Accelerated 1 month) [%]	Content (Accelerated 1 month) [%]	Total purity (Accelerated 2 months) [%]	Content (Accelerated 2 months) [%]	Total purity (Accelerated 3 months) [%]	Content (Accelerated 3 months) [%]
Potassium hydroxysafflor yellow A	1.5	92.5	1.8	92.2	2.2	91.8	2.8	91.3
O=C(/C=C/c1ccc(O)cc1)C1=C(O)C(O)(C2OC(CO)C(O)C(O)C2O)C([O][Ca][O]C2=C(C3OC(CO)C(O)C(O)C3O)C(=O)C(C(=O)/C=C/c3ccc(O)cc3)=C(O)C2(O)C2OC(CO)C(O)C(O)C2O)=C(C2OC(CO)C(O)C(O)C2O)C1=O (stereo not drawn) [Calcium hydroxysafflor yellow A]		96.2						
